Reported water solubility values for industrial, environmental and drug-like chemicals

Data: OPERA 2.9 data sets, kmansouri/OPERA on GitHub.

Solubility in water is on a log10 molar scale (set defined at 25 °C).

* NC(=O)Nc1cccc(F)c1: log S -1.429 (log10 mol/L)
* C=CC1=C(C)c2cc3[nH]c(cc4nc(cc5[nH]c(cc1n2)c(C)c5CCC(=O)O)C(CCC(=O)O)=C4C)c(C)c3C=C: log S -3.52 (log10 mol/L)
* N#Cc1ccc(C(F)(F)F)cc1[N+](=O)[O-]: log S -2.471 (log10 mol/L)
* CCCCCCCCCCCCOC(=O)c1cccnc1: log S -3.29 (log10 mol/L)
* COC(=O)C(C#N)C(=O)CC(C)C (stereo unspecified): log S -2.725 (log10 mol/L)
* O=C(O)CSC(CC(=O)O)c1ccccc1 (stereo unspecified): log S -1.247 (log10 mol/L)
* CCCC/C=C/CCCCOC(C)=O: log S -4.561 (log10 mol/L)
* CCCCCCCCCCCCOc1ccc(C(=O)O)cc1: log S -2.45 (log10 mol/L)
* CCOC(=O)C(C)NC(=O)c1ccco1 (stereo unspecified): log S -1.105 (log10 mol/L)
* CCCCC(O)CCCC: log S -2.495 (log10 mol/L)
* O=[N+]([O-])c1ccc2c(c1CO)OCO2: log S -3.064 (log10 mol/L)
* CC(=O)Nc1cccc(Br)c1: log S -2.73 (log10 mol/L)
* Nc1ccc(Br)cc1S(=O)(=O)O: log S -2.627 (log10 mol/L)
* O=C(O)[C@@H]1C[C@@H](O)CN1: log S 0.439 (log10 mol/L)
* O=NN(CCCl)C(=O)NC1CCCCC1: log S -2.491 (log10 mol/L)
* O=C(O)c1cccc2ccccc12: log S -3.3 (log10 mol/L)
* Nc1cc(Cl)nc(C(=O)O)c1Cl: log S -1.921 (log10 mol/L)
* C[C@](N)(Cc1ccc(O)cc1)C(=O)O: log S -1.896 (log10 mol/L)
* O[Si](O)(c1ccccc1)c1ccccc1: log S -2.733 (log10 mol/L)
* O=C(O)c1cccc(I)c1: log S -3.27 (log10 mol/L)
* O=NN(CCCl)C(=O)NCCC(SCC(=O)O)n1cc(F)c(=O)[nH]c1=O (stereo unspecified): log S -1.518 (log10 mol/L)
* CC(=O)NC(N)=S: log S -0.965 (log10 mol/L)
* C/C(=N/Nc1ccc([N+](=O)[O-])cc1[N+](=O)[O-])C(=O)O: log S -1.017 (log10 mol/L)
* CCN(CCO)c1ccc(N=Nc2ccc([N+](=O)[O-])cc2[N+](=O)[O-])cc1: log S -5.699 (log10 mol/L)
* CC(C(=O)O)c1ccc(N2Cc3ccccc3C2=O)cc1 (stereo unspecified): log S -4.804 (log10 mol/L)
* O=C(Cn1ccnc1[N+](=O)[O-])NCc1ccccc1: log S -2.81 (log10 mol/L)
* CC1=COC(=O)C2C(C)CCC12 (stereo unspecified): log S -2.03 (log10 mol/L)
* CCOC(=O)/C(=C\c1ccc(OC)cc1)N=CO: log S -2.74 (log10 mol/L)
* Nc1cc(S(=O)(=O)O)cc2ccccc12: log S -2.34 (log10 mol/L)
* CC(=O)C(/N=N/c1ccc(Cl)cc1[N+](=O)[O-])C(=O)Nc1ccc2[nH]c(=O)[nH]c2c1 (stereo partly drawn): log S -7.474 (log10 mol/L)
* CC1(C)S[C@@H]2[C@H](NC(=O)[C@H](N=[N+]=[N-])c3ccccc3)C(=O)N2[C@H]1C(=O)O: log S -2.788 (log10 mol/L)
* NNC(=O)c1cccs1: log S -0.755 (log10 mol/L)
* O=C1O[C@@H]([C@H](O)[C@H](O)CO)[C@@H](O)[C@H]1O: log S 0.393 (log10 mol/L)
* O=C(O)CNCCNCC(=O)O.[Br-].[Br-].[Pt+2]: log S -2.552 (log10 mol/L)
* CC(=O)Nc1ccc(S(=O)(=O)Nc2nc(C)cs2)cc1: log S -2.151 (log10 mol/L)
* NC(=O)CC(O)C(=O)O (stereo unspecified): log S -0.249 (log10 mol/L)
* CCCCOCCOC(=O)CCCOc1ccc(Cl)cc1Cl: log S -6.09 (log10 mol/L)
* C=CC(=O)NC(C)C: log S 0.273 (log10 mol/L)
* C=C(C)CCC: log S -3.03 (log10 mol/L)
* O=C(O)CCC(=O)NC(Cc1cc(I)c(Oc2cc(I)c(O)c(I)c2)c(I)c1)C(=O)O (stereo in doubt): log S -1.965 (log10 mol/L)
* CC(=O)O[C@H]1[C@@H]2OC(C)(C)O[C@@H]2O[C@H]1C1COC(C)(C)O1 (some centres not stated): log S -1.523 (log10 mol/L)
* O=C1C=CC(=O)N1Cc1cccc(CN2C(=O)C=CC2=O)c1: log S -3.897 (log10 mol/L)
* COCCCNc1nc(Cl)nc(NC(C)C)n1: log S -3.36 (log10 mol/L)
* C[C@H](CC(N)=O)C(N)=O: log S -0.813 (log10 mol/L)

Repeated from above, the 4 entries with the highest log S:

{"smiles": "O=C(O)[C@@H]1C[C@@H](O)CN1", "log S (log10 mol/L)": "0.439"}
{"smiles": "O=C1O[C@@H]([C@H](O)[C@H](O)CO)[C@@H](O)[C@H]1O", "log S (log10 mol/L)": "0.393"}
{"smiles": "C=CC(=O)NC(C)C", "log S (log10 mol/L)": "0.273"}
{"smiles": "NC(=O)CC(O)C(=O)O", "stereo": "stereo unspecified", "log S (log10 mol/L)": "-0.249"}

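The numbers are reported measurements, compiled and curated for the OPERA QSAR suite. The files give a single number for a compound and property, which may rest on several reports. How each value was measured is not recorded, so precision varies. A value may pool stereoisomers or salt forms, and the file does not say which form was measured. Unmarked limits or estimates from the upstream databases cannot be ruled out.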